The text below walks through data of ChEMBL document CHEMBL5042532, “Discovery of N-(4-(Benzyloxy)-phenyl)-sulfonamide Derivatives as Novel Antagonists of the Human Androgen Receptor Targeting the Activation Function 2” (J Med Chem, 2022).

Activity calls are given as the source filed them. The rule behind the calls is not given here.

The experiment relates to LNCaP. Put plainly: Downregulation of RACGAPI mRNA expression in human LNCaP cells at 0.1 to 1 uM measured after 48 hrs by qRT-PCR analysis. It counts as functional, cell-based. The settings on record: dose 0.1-1 µM. Background: Real-time PCR tracks product formation cycle by cycle.

With `CNC(=O)c1ccc(N2C(=S)N(c3ccc(C#N)c(C(F)(F)F)c3)C(=O)C2(C)C)cc1F` [ENZALUTAMIDE], the result was Active.
